Reference: patent publication US20260242365A1, “USES OF CERTAIN 1,4-OXAZEPANE-2-CARBOXAMIDES AS DPP1 INHIBITORS” (Insmed Incorporated, priority 2023, published 2026)

Chains of the proteins cited; added tags and fusions are not shown. Residues count along the entry.
UniProt P53634, 395-463 limits assumed: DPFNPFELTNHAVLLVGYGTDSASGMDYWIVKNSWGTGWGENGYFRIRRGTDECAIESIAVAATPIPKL
UniProt P53634, 25-134 limits assumed: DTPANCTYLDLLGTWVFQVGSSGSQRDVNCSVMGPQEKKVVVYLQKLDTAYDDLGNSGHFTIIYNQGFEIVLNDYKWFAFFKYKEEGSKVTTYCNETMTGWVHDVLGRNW
UniProt P53634, 231-394 limits assumed: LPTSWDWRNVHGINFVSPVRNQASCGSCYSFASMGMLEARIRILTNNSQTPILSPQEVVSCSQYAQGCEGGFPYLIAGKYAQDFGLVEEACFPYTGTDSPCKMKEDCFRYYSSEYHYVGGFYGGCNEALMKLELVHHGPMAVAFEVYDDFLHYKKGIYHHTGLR

Biological target: T1, human DPP1 (Homo sapiens, UniProt P53634)
T1 construct: was first proteolytically processed into its mature form using recombinant human cathepsin L; purchased R&D Systems
Test: Human DPP1 Enzyme IC50 Assay
Format: biochemical
Conditions: activated human DPP1 enzyme, H-Gly-Arg-AMC substrate
Description: Recombinant human DPP1 enzyme (R&D Systems; Minneapolis, MN) was first proteolytically processed into its mature form using recombinant human cathepsin L (R&D Systems) in a buffer consisting of 20 mM citric acid pH 4.5, 150 mM NaCl, 1 mM EDTA and 10 mM DTT. Alternatively, a crude lysate of HL-60 cells (ATCC; Manassas, VA) is used as a source of human DPP1 enzyme in the assay. Lysate was prepared in 1% Triton X-100 in PBS at a concentration of 20,000 live cells per μL of lysis buffer and centrifuged at 16,000×g for 10 minutes at 4° C., after which supernatant was collected and flash-frozen in liquid nitrogen.
Test articles were applied to activated human DPP1 enzyme in Assay Buffer (25 mM MES pH 6.0, 50 mM NaCl, 5 mM DTT) in a total reaction volume of 125 μL. […] Substrate cleavage was measured for 90 minutes at 37° C., with fluorescence at Excitation/Emission 350/450 nm measured every 5 minutes. […] IC50 values for each compound were calculated via the XLFit (IDBS Version 5.3.1.3) Add-On to Microsoft Excel using the four parameter fit equation y=(A+ ((B−A)/(1+ ((C/x)^D)))), which appears as equation number 205 (4 Parameter Logistic Model or Sigmoidal Dose-Response Model) in XLFit. […]

## Cn1c(=O)oc2ccc(-c3ccc(C[C@@H](C#N)NC(=O)[C@@H]4CNCCCO4)c(F)c3)cc21 [INSM-204]
  IC50: 8.7 ± 0.02 nM
